# Values quoted from earlier work, collected in patent US8933038B2, “Method of treating cancer with an HLA-A*3303-restricted WT1 peptide and pharmaceutical composition comprising the same” (International Institute of Cancer Immunology, Inc., priority 2006, dated 2015).
# By UniProt entry, the sequences of proteins in these tests, tags left out. Where a name states a change or a piece, a line headed by the entry shows the natural chain unless it says otherwise.
# UniProt P19544: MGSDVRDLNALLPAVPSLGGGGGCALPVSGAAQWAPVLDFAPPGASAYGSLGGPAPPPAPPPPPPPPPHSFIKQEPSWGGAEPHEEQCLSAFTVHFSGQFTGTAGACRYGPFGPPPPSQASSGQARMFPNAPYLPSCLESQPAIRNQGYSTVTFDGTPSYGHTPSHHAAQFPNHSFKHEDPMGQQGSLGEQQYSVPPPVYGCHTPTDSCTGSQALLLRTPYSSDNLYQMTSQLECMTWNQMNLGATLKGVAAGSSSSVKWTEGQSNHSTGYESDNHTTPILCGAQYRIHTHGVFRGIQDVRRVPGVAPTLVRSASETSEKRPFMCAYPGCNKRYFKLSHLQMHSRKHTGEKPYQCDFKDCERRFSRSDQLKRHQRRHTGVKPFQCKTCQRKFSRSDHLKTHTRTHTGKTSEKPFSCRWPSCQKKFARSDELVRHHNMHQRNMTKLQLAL
# System: human peripheral blood mononuclear cells having HLA-A*0201
# Details: human PBMCs having HLA-A*0201 stimulated with peptide; Non-patent Document 11; cited from earlier work
substance,measurement,value
"Db126 peptide: WT1 peptide having a high ability to bind to an HLA-A*0201 molecule (RMFPNAPYL; UniProt P19544 126-134, looked up, fragment)",induction of WT1-specific CTLs,WT1-specific CTLs are induced
